Assay outcomes (PubChem)
A selection: hits, their analogues and other compounds. The true share with any hit is near 1%.
Luc counter = counter-screen: inhibitors of Kinase-Glo firefly luciferase; Q27757; Kinase-Glo luciferase, ATP luminescence, 8 min; Potency, µM (titrated, usually from 38.3 µM), for inactives: at the highest dose activity change, negative = inhibition, hits mostly inhibitors; actives 0.28% (n = 200,000); also: potency is read from the fitted curve at half-maximal effect; % is scaled to controls: 0 for no effect and ±100 for the full control effect; nearly all actives have a fitted effect of over 60% in size
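Luminescence was the read-out, taken after 8-minute incubation at ambient temperature. Luciferase turned over luciferin with 10 uM ATP in imidazole pH 7.2 buffer containing KCl, MgCl2, Tween 20 and BSA.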
miR-21 reporter = miR-21 reporter, rising signal | AID 2288 | HeLa miR-21 FLuc reporter, luciferase, 48 h | 340,000 tested, under 10 active | Potency, µM (doses to about 38.3 µM), for inactives: at the top dose reporter change, positive = more light; active = well fitted rising curve with a large enough effect; inconclusive = small, poorly fitted or top-dose-only effect; inactive = no such curve, though single readings can be large or run the other way;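 note: % of control where 0% means no effect; miR-21 action dims this reporter so a rising signal means less miR-21 action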
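Compounds were titrated across several concentrations (up to approximately 40 uM) and incubated 48 hours with HeLa miR-21-FLuc reporter cells (miR-21 target sequence downstream of FLuc, endogenous miR-21). Readout was firefly luciferase luminescence after lytic detection reagent.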
gsp ag = agonists of gsp mutant (McCune-Albright syndrome) | actives 0.13% (n = 340,000) | AID 624287 | gsp mutant cells, cAMP HTRF, 30 min | Potency, µM (series often up to 76.9 µM), for inactives: at the top dose activation (cAMP increase), most hits filed as activators; active = well fitted activation curve with a large enough effect; inconclusive = small, poorly fitted or top-dose-only effect, or another doubt; inactive = no such curve, though single readings can be large or run the other way; cell line not stated here;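 also: phosphodiesterase inhibitor Ro 20-1724 added with compounds to block cAMP breakdown; potency is read from the fitted curve at half-maximal effect; nearly all actives have a fitted effect of over 60% in size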
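Cells stably selected in G418 were plated at 2000/well, grown 16-24 hr, then given compounds in DMSO with the PDE inhibitor […] (300 uM solution added) for 30 min at 37C; cAMP was read by HTRF.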
gsp antag = gsp mutant antagonism; gsp-mutant cells, cAMP HTRF, 30 min; Potency, µM (titrated, usually from 76.9 µM), for inactives: at the top dose activity change, negative = inhibition, actives largely listed as inhibitors; actives 0.4% (n = 340,000); calls by dose curve; cell line not stated here;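 also: intracellular cAMP measured with PDE inhibitor Ro 20-1724 present during compound exposure; potency is read from the fitted curve at half-maximal effect; % is scaled to controls: 0 for no effect and ±100 for the full control effect; nearly all actives have a fitted effect of over 65% in size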
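HTRF cAMP read-out (cAMP-d2 plus anti-cAMP antibody-K in lysis buffer, 30 min RT). Before lysis, cells are exposed to compounds with […] for 30 min at 37C in DPBS containing Ca/Mg, BSA and Tween 20.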
RXFP1 antagonist = RXFP1 (human) relaxin receptor antagonism. Q9HBX9. HEK293-RXFP1, relaxin-stimulated cAMP HTRF, 30 min; stronger effect = lower value. activity change, negative = inhibition, % at 57.5 µM. actives 0.59% (n = 350,000);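 active = activity change of -60% or lower, but not beyond a set lower limit; inconclusive = change between -60% and -40%, or beyond the set limit; inactive = change above -40%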; also: % is scaled to controls: 0 for no effect and ±100 for the full control effect
RXFP1 ag = activates the human relaxin receptor RXFP1. actives 0.3% (n = 370,000). HEK293T-RXFP1 cAMP TR-FRET, 30 min; response scale: percent of porcine relaxin response, buffer zero. Potency, µM (doses to about 57.5 µM), for the others: top-dose activation, actives largely listed as activators. AID 2676; also: potency is read from the fitted curve at half-maximal effect; % is scaled to controls: 0 for no effect and ±100 for the full control effect; nearly all actives have a fitted effect of over 60% in size
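cAMP rise read by TR-FRET after 30 min, 37C compound exposure (up to 58 uM) in RXFP1-transfected HEK293 cells with Ro 20174 present. EC50 from Hill-equation fits, with 29 nM porcine relaxin as 100% and buffer as basal.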
Active calls of the source: *; [ ] = remark or other dose. Unless noted, calls follow the shape of the dose curve; as a rule, active = well fitted curve in the direction sought with a large enough effect; inconclusive = small, poorly fitted or top-dose-only effect, or another doubt; inactive = no such curve, though single readings can be large; an effect the other way counts as inactive or inconclusive.

For Cc1[nH]n(-c2ccc([N+](=O)[O-])cc2)c(=O)c1C=NCCN1CCN(C(=O)C(C)C)CC1 the results were Luc counter 10µM*, miR-21 reporter -1%, gsp ag inconclusive, gsp antag -1%, RXFP1 antagonist 8 and RXFP1 ag 25µM*.
Screening Cc1[nH]n(-c2ccc([N+](=O)[O-])cc2)c(=O)c1C=NCCc1ccc(S(N)(=O)=O)cc1 returned Luc counter -9%, miR-21 reporter 1%, gsp ag 13%[15.4 µM], gsp antag 7%, RXFP1 antagonist -13 and RXFP1 ag 4%.
Screening CCc1ccccc1NC(=O)Cn1c(=O)n(Cc2ccc(OC)cc2)c(=O)c2oc3ccccc3c21 returned miR-21 reporter -1%, RXFP1 antagonist 4 and RXFP1 ag 6%.
O=C(N/N=C/c1ccccc1)c1[nH]ncc1Br was read as Luc counter 6.3µM*, miR-21 reporter -57%, gsp ag 14%[15.4 µM], gsp antag -3%, RXFP1 antagonist 1 and RXFP1 ag 0%.
For C[C@@H]1CCCCO[C@@H](CN(C)C(=O)Nc2ccccc2)[C@@H](C)CN([C@H](C)CO)C(=O)c2cc(N(C)C)ccc2O1 the results were gsp ag 14µM* and RXFP1 antagonist 5.
Screening COC(=O)c1ccc(NC(=O)CC2C(=O)N(c3ccc(C)cc3)C(=O)N2Cc2ccc(OC)cc2)cc1 (stereo not drawn) returned miR-21 reporter 0%, RXFP1 antagonist 0 and RXFP1 ag 2%.
CCn1c(/C=C/c2ccc(O)c(O)c2)nc2ccccc2c1=O was read as miR-21 reporter 0%, gsp ag -11%, gsp antag -21%, RXFP1 antagonist -16 and RXFP1 ag 0%.
`CCn1c(/C=C/c2ccc(O)cc2)nc2ccccc2c1=O` gave miR-21 reporter 5%, gsp ag 7%[15.4 µM], gsp antag -20%, RXFP1 antagonist -71* and RXFP1 ag -1%.
For NC(=O)c1cc[n+](CC2=C(C(=O)[O-])N3C(=O)[C@@H](NC(=O)Cc4cccs4)[C@H]3SC2)cc1 the results were RXFP1 antagonist -12.
Screening O=c1c2ccccc2nc(COc2ccccc2)n1/N=C/c1ccc(O)cc1O returned miR-21 reporter 4%, gsp ag 12%, gsp antag inconclusive, RXFP1 antagonist -71* and RXFP1 ag 5%.
O=C(N/N=C1\CCCCc2ccccc21)c1ccccn1 was read as Luc counter -1%, miR-21 reporter -62%, gsp ag 5%[15.4 µM], gsp antag -1%, RXFP1 antagonist -65* and RXFP1 ag 1%.
Screening O=C(N/N=C1\CCCc2ccccc21)c1ccccc1Cl returned Luc counter -3%, miR-21 reporter -42%, gsp ag 21%, gsp antag -7%, RXFP1 antagonist -18 and RXFP1 ag 0%.
Cc1cccc(NC(=S)N/N=C2/CCCCc3ccccc32)c1 was read as Luc counter 0%, miR-21 reporter -6%, gsp ag -6%, gsp antag -4%, RXFP1 antagonist 3 and RXFP1 ag 0%.
Cc1ccc(NC(=S)N/N=C2/CCCCc3ccccc32)cc1 was read as miR-21 reporter -39%, gsp ag -15%, gsp antag inconclusive, RXFP1 antagonist -61* and RXFP1 ag -1%.
Screening O=C(NN=C1CCCCCCC1)c1ccccn1 returned miR-21 reporter -44%, gsp ag -16%, gsp antag 12%, RXFP1 antagonist 18 and RXFP1 ag 0%.
Screening O=C(N/N=C1\CCc2ccccc21)c1ccccc1O returned Luc counter 10µM*, miR-21 reporter -2%, gsp ag -1%, gsp antag 5%, RXFP1 antagonist -4 and RXFP1 ag -1%.
Screening CCCCOc1ccc(CNC(=O)CCCN2C(=O)CSc3c2c(C)nn3-c2ccccc2)cc1 returned miR-21 reporter 20% and RXFP1 ag 2%.
`O=C(NCCCCCCNC(=O)ON=C1CCCCC1)ON=C1CCCCC1` gave Luc counter -1%[39.9 µM].
Screening CCOC(=O)C(=CNc1ccccc1C)C(=O)OCC returned Luc counter 9%, miR-21 reporter -12%, gsp ag 35%, gsp antag 20µM*, RXFP1 antagonist -15 and RXFP1 ag 3%.
For Cc1noc(C)c1S(=O)(=O)NCCc1csc2nc(-c3ccc(Cl)cc3)nn12 the results were miR-21 reporter 14%, RXFP1 antagonist -29 and RXFP1 ag 1%.

Next section; it opens with the 4 that closed the last part.
Screening CCCCOc1ccc(CNC(=O)CCCN2C(=O)CSc3c2c(C)nn3-c2ccccc2)cc1 returned miR-21 reporter 20% and RXFP1 ag 2%.
`O=C(NCCCCCCNC(=O)ON=C1CCCCC1)ON=C1CCCCC1` gave Luc counter -1%[39.9 µM].
Screening CCOC(=O)C(=CNc1ccccc1C)C(=O)OCC returned Luc counter 9%, miR-21 reporter -12%, gsp ag 35%, gsp antag 20µM*, RXFP1 antagonist -15 and RXFP1 ag 3%.
For Cc1noc(C)c1S(=O)(=O)NCCc1csc2nc(-c3ccc(Cl)cc3)nn12 the results were miR-21 reporter 14%, RXFP1 antagonist -29 and RXFP1 ag 1%.
Cc1nc2ccc(NC(=O)c3cccc(S(=O)(=O)N(C)c4ccccc4)c3)cc2s1 was read as Luc counter -2%, miR-21 reporter 22%, gsp ag -69%, gsp antag 35µM* and RXFP1 ag 4%.
CC(=O)c1c(C)[nH]c(C(=O)Nc2cccc(S(=O)(=O)N(C)c3ccccc3)c2)c1C was read as miR-21 reporter 29%, gsp ag 0%, gsp antag 32µM*, RXFP1 antagonist -30 and RXFP1 ag -1%.
Screening COc1ccc(N(C)S(=O)(=O)c2cccc(C(=O)Nc3ccc(-n4cnnn4)cc3)c2)cc1 returned Luc counter 1%, miR-21 reporter inconclusive, gsp ag 18%, gsp antag 28µM*, RXFP1 antagonist -25 and RXFP1 ag 2%.
For COc1cc(NC(=O)c2ccccc2-n2cnnn2)cc(OC)c1 the results were gsp ag -30%[15.4 µM], gsp antag 3%, RXFP1 antagonist -1 and RXFP1 ag 0%.
For COc1cc(OC)cc(C(=O)Nc2ccc(-n3cnnn3)c(C)c2)c1 the results were Luc counter 14µM*, miR-21 reporter -54%, gsp ag 8%, gsp antag -2%, RXFP1 antagonist -1 and RXFP1 ag 3%.
For COc1ccc(-n2ccn(CC(=O)Nc3ccccc3C(F)(F)F)c(=O)c2=O)cc1OC the results were miR-21 reporter 0%, RXFP1 antagonist -5 and RXFP1 ag -3%.
CCc1nn2c(=O)cc(COC(=O)Cc3ccccc3)nc2s1 was read as miR-21 reporter -4% and RXFP1 ag 2%.
CN(c1ccccc1)S(=O)(=O)c1cccc(NC(=O)c2ccc3ncsc3c2)c1 was read as miR-21 reporter inconclusive, gsp ag -10%[15.4 µM], gsp antag 25µM*, RXFP1 antagonist -12 and RXFP1 ag 0%.
COCc1ccc(C(=O)Nc2cccc(S(=O)(=O)N(C)c3ccccc3)c2)cc1 was read as gsp ag 23%, gsp antag -22% and RXFP1 antagonist 3.
